For 1 substance, Toxicity in words results are on record in publication PMC4228444 (BMC Complementary and Alternative Medicine, 2013).

For series [1], the system named is B16-F10 mouse melanocytes. Put plainly: In vitro cytotoxicity assay (XTT), B16-F10. The settings on record: B16-F10 cells. The protocol: (§1) The mouse melanocytes (B16-F10) cells were cultured in a complete Minimum Essential Eagle’s Medium (MEM) whereas the human U937 cells were cultured in Roswell Park Memorial Institute (RPMI) containing 10% fetal bovine serum (FBS) and 1% gentamycin. B16-F10 (10^5 cells per well) and U937 (10^6 cells per well) were seeded into a 96-well plate. After an overnight incubation at 37°C in 5% CO2 and a humidified atmosphere, the extract, compounds and the positive control (actinomycin D) were added to the cells. […] The highest concentration of positive control (0.05 μg/ml) was serially diluted to eight consecutive wells. The plate was then incubated at 37°C in 5% CO2, and a humidified atmosphere after which the toxic effects of the extracts were assayed using the XTT (sodium 3’-[1-(phenyl amino-carbonyl)-3,4-tetrazolium]-bis-[4-methoxy-6-nitrobenzene sulfonic acid hydrate) cytotoxicity assay. […] The optical densities of the wells were measured at 450 nm (690 nm reference wavelength) using BIOTEK Power-wave XS multi well reader (A.D.P., Weltevreden Park, South Africa). By referring to the control (medium with DMSO), the cell survival rate was assessed.

Another series has as its system U937 human macrophage. Put plainly: In vitro cytotoxicity assay (XTT), U937. The settings on record: U937 cells. Here is the method: as §1

On to myricitrin, for which the Toxicity in words result (in series [1]; with U937 human macrophage) was “did not show any toxicity” throughout.
